Target: Vascular endothelial growth factor receptor (Homo sapiens, UniProt P17948+P35916+P35968)
Details: endothelial cell

The chains behind the UniProt entries cited, without tags or fusion partners. Where a name states a change or a piece, a line headed by the entry shows the natural chain unless it says otherwise.
UniProt P17948: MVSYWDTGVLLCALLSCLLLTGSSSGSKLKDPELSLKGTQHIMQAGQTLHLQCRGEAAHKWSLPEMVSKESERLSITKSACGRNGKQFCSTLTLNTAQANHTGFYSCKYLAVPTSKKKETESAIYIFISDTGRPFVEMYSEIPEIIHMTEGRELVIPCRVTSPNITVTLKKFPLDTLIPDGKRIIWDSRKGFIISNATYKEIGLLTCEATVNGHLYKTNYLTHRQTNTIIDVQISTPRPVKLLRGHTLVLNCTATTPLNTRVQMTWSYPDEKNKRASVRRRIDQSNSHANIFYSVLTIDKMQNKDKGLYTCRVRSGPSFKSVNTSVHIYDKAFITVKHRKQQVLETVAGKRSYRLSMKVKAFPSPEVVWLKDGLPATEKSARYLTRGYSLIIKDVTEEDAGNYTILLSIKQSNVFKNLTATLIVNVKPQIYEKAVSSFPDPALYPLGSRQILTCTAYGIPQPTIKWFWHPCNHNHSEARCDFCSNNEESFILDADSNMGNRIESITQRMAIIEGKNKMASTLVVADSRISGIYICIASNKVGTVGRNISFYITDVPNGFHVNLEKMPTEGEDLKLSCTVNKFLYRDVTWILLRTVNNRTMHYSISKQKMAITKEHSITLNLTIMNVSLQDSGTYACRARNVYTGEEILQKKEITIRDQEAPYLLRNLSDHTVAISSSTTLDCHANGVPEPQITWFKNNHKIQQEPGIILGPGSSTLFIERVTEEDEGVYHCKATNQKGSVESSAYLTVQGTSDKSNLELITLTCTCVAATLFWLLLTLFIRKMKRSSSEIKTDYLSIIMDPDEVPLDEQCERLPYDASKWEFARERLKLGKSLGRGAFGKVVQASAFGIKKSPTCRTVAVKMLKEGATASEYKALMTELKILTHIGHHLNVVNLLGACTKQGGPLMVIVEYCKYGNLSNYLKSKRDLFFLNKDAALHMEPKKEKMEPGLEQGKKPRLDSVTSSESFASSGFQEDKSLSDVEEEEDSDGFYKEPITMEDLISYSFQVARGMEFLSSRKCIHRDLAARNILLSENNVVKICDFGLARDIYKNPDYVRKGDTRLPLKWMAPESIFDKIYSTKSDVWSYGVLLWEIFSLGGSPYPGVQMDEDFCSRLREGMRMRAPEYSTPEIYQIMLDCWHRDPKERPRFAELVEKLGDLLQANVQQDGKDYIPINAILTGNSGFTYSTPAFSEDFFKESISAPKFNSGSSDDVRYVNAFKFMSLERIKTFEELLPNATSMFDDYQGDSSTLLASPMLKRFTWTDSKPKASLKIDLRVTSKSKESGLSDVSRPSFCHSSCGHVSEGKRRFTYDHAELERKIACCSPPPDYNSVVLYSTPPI
UniProt P35916: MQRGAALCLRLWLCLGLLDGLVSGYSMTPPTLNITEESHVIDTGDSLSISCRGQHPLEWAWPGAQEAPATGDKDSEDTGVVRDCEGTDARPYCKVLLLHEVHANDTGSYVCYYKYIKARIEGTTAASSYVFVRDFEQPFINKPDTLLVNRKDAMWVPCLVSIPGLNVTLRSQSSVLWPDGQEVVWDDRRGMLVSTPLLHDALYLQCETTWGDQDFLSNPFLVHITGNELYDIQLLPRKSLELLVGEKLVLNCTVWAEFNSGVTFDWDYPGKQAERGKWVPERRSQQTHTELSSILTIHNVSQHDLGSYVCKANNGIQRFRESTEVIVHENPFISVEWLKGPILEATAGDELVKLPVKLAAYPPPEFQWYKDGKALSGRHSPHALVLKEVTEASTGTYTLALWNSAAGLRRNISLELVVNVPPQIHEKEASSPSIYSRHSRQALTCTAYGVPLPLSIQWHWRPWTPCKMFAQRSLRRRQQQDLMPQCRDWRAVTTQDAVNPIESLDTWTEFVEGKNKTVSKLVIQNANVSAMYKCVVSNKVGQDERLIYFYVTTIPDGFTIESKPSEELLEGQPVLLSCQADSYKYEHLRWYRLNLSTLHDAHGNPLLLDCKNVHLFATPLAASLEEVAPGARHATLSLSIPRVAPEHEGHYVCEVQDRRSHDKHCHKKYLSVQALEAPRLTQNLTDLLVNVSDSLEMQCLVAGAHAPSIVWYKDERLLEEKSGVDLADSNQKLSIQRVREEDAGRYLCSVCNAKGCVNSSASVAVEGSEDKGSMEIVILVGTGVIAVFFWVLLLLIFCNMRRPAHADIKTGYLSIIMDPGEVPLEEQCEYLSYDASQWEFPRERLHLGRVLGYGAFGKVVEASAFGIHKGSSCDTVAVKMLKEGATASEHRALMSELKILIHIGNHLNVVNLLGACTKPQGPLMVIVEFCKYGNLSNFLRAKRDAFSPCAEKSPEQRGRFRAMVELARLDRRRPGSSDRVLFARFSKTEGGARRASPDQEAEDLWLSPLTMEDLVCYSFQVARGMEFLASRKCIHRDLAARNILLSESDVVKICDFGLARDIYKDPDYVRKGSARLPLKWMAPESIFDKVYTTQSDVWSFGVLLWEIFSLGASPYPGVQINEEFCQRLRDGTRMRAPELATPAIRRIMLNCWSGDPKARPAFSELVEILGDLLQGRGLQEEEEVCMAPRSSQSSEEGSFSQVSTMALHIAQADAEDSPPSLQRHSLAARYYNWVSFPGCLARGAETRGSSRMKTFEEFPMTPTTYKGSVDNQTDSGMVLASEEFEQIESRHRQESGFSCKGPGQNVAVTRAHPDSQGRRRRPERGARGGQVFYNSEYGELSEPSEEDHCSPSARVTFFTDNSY
UniProt P35968: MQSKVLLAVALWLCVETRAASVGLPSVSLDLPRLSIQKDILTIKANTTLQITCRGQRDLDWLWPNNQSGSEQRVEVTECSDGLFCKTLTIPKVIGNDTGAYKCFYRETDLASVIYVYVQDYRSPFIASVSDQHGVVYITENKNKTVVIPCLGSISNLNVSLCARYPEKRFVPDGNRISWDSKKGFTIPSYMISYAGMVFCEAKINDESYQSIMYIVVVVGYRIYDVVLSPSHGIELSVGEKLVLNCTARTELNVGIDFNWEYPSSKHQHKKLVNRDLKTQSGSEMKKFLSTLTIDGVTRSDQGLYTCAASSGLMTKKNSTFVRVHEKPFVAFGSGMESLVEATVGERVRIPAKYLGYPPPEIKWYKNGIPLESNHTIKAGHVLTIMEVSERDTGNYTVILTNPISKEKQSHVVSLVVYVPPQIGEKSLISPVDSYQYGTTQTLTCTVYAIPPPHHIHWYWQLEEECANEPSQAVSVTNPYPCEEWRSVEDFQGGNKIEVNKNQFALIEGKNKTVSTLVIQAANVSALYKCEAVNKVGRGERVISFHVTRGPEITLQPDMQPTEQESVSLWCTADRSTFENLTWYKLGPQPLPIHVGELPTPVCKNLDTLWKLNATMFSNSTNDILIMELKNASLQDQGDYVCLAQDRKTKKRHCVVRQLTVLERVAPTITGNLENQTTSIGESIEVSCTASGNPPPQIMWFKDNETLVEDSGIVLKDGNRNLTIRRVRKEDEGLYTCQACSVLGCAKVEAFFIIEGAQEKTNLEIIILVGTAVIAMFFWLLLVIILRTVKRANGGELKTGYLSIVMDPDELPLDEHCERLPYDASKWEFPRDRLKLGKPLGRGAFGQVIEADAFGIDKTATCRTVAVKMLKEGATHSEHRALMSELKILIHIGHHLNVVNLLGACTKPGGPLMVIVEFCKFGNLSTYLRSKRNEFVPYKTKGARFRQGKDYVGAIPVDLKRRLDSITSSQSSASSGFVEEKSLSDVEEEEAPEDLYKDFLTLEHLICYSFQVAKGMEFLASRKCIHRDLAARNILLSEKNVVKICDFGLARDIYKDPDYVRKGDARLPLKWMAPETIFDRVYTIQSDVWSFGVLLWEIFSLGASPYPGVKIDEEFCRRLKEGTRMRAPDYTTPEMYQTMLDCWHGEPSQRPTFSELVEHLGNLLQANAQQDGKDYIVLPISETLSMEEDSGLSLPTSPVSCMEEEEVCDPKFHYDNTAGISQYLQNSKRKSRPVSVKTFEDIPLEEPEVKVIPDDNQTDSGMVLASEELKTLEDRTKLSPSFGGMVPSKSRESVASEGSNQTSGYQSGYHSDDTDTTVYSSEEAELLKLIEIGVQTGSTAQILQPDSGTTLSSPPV

## COc1ccc(-c2cnc3c(-c4ccsc4)cnn3c2)cc1
  IC50: 387 nM

Reference: ChEMBL document CHEMBL1135002, “Optimization of a pyrazolo[1,5-a]pyrimidine class of KDR kinase inhibitors: improvements in physical properties enhance cellular activity and pharmacokinetics” (Bioorg Med Chem Lett, 2002)
